Data: patent US12428408B2, “Fused heterocyclic mescaline derivatives” (Enveric Biosciences Canada Inc., priority 2022, dated 2025)

Sequences of proteins named here, by UniProt entry; tags and fusion partners are left off.
UniProt P23975, whole entry: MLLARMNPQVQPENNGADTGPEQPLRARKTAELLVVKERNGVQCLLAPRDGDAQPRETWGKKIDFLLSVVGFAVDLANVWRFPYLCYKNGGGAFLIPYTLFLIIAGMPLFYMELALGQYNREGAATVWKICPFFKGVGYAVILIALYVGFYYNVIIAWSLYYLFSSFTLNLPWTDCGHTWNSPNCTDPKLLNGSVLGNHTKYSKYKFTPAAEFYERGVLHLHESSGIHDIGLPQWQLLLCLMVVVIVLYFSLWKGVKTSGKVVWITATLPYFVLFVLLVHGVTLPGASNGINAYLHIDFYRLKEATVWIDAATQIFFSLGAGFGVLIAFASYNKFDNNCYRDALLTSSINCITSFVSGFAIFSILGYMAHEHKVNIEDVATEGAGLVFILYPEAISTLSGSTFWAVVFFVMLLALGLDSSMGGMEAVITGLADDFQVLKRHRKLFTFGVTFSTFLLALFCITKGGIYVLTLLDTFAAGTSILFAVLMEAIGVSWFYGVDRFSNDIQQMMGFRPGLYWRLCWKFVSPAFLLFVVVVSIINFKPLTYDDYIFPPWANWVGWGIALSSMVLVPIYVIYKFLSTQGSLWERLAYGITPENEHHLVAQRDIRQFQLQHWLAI

Molecular target: T1, NET (h) (Homo sapiens, UniProt P23975)
T1 construct: host or cells: CHO cells
Assay: Competition assay to measure binding affinity at norepinephrine transporter (NET)
Conditions: test ligand 10 μM; [3H]nisoxetine 1 nM

CC(NC(C)(C)C)C(=O)c1cccc(Cl)c1 (stereo not shown) [Bupropion, reference compound]
NET, percent of control-specific binding: 12%
